Results taken from ChEMBL document CHEMBL1155460, “Prediction of acetylcholinesterase inhibitors and characterization of correlative molecular descriptors by machine learning methods” (Eur J Med Chem, 2010).

By UniProt entry, the sequences of proteins in these tests, tags left out. Where a name states a change or a piece, a line headed by the entry shows the natural chain unless it says otherwise.
UniProt P22303: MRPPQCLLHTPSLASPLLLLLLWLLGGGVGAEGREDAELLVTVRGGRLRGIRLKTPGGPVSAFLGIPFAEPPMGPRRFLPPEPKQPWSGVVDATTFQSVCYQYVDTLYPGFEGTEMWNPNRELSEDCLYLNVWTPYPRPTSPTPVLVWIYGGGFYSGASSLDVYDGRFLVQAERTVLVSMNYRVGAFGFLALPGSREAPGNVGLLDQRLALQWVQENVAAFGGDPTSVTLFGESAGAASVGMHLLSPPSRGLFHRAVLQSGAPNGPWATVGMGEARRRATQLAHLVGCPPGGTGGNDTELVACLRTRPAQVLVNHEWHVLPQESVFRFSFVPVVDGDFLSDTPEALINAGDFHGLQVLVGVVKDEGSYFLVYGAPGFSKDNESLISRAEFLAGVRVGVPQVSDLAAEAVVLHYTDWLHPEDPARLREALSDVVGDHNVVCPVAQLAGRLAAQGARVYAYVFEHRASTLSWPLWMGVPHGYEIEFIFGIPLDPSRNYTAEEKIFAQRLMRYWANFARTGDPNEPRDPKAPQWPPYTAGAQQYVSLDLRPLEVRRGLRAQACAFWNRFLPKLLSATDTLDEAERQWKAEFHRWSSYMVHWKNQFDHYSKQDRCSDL

target: Acetylcholinesterase (Homo sapiens, UniProt P22303)

| SMILES | IC50 |
| --- | --- |
| O=C(CCC1CCN(Cc2ccccc2)CC1)c1ccc2c(c1)NCCCC2 [ZANAPEZIL] | 0.1 µM |
| O=C(CCC1CCN(Cc2ccccc2F)CC1)c1ccc2c(c1)NCCCC2 | 0.331 µM |
| CCN1CC[C@@]2(C)c3cc(OC(=O)NC(C)(C)C)ccc3C[C@@H]12 | 12.5 µM |
| COc1ccc(CN2CCC(CCC(=O)c3ccc4c(c3)CCN4)CC2)cc1 | 13.3 µM |
| COc1ccc(CN2CCC(CCC(=O)c3ccc4c(c3)NCCCC4)CC2)cc1 | 55.2 µM |
